Values quoted from earlier work in article PMC10692163, “Structure-based discovery of novel P-glycoprotein inhibitors targeting the nucleotide binding domains” (Scientific Reports, 2023).

Test system: P-gp nucleotide binding domain
Conditions: Table S1, supplement reference list, ref [4]; cited from earlier work

For `COc1cc([C@H]2Oc3cc(-c4oc5cc(O)cc(O)c5c(=O)c4O)ccc3O[C@@H]2CO)ccc1O` [Dehydrodilybin], the “Class (known P-gp NBD inhibitor)” value is listed as “Marginal”.
